Test results reported in paper PMC3392026.

Target: protein kinase C (PKC), endogenous in COS-7 (monkey (endogenous in COS-7)) (UniProt P17252)
Assay: co-IP

Rac1 (endogenous, COS-7) (from UniProt P63000 1-192) (natural protein)
fold increase of Rac1 co-precipitated with PKC, H/R against normoxia: 4 fold
